Measurements: US20040220260A1, “Use of mono-or di-esters of cinnamic acid or of one of its derivatives and vitamin C, as donor of NO” (L'OREAL S.A., priority 2003, published 2004)

Amino acid sequences for entries named in this document (tags omitted).
UniProt P35228, whole entry: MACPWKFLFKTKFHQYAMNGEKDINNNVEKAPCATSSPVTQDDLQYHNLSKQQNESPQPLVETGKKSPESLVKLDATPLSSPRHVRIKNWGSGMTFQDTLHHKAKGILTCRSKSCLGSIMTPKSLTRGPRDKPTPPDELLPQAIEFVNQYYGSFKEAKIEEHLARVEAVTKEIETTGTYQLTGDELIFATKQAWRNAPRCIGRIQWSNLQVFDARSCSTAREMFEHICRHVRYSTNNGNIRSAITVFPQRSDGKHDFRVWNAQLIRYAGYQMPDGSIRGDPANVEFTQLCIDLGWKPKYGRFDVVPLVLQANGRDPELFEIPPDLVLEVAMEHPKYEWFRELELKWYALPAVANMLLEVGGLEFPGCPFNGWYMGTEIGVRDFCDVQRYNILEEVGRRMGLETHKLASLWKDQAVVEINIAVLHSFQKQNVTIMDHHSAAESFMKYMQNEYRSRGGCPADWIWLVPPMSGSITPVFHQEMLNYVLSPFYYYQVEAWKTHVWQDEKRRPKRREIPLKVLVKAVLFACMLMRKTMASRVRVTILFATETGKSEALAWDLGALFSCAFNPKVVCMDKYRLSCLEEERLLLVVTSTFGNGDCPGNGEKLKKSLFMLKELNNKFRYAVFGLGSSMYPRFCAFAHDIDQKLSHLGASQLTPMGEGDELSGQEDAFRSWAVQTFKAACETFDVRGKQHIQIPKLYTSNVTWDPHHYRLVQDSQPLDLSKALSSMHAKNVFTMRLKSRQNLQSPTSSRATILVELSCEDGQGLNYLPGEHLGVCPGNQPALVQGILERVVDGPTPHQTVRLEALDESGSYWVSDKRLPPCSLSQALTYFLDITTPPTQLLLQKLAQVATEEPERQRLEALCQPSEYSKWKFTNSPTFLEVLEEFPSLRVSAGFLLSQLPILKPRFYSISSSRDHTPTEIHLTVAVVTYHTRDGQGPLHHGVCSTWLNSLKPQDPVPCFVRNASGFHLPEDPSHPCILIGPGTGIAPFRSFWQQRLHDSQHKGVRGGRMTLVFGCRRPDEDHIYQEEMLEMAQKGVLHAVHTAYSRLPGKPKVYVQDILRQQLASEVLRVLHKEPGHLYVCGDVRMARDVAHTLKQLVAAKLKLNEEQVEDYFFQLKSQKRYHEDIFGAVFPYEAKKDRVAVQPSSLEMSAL

Biological target: T1, inducible NO synthase (NOS2) (Homo sapiens, UniProt P35228)
T1 construct: endogenous in cells; host or cells: normal human keratinocytes (primary culture), induced with interferon-γ and interleukin 1-β
Assay: screening test of the modulation of induction of NOS2 by normal human keratinocytes (nitrite/nitrate measurement)
Type: cell-based
Details: control compounds at 200 μm, NOS2 induced by cytokines
Protocol: The activity of ascorbyl 2-O-cinnamate on the inducible NO synthase was evaluated in the assay described by Heck et al. (J.B.C., vol. 267, No. 30, 21277-21280, 25 Oct. 1992), a screening test of the modulation of induction of NOS2 by normal human keratinocytes. The objective of this test is, briefly, to evaluate the concentration of nitrate and nitrite after stimulation of the NO-synthase 2.
The test is carried out on a culture of normal human keratinocytes, derived from samples taken. The induction of the inducible NO synthase (NOS2) was caused by the addition of a combination of several cytokines to the culture medium. The product tested was applied at three concentrations varying from […] to 1000 μM.
The product tested was classed in one of the following two categories: inhibitor (I) or donor (D) of NO (nitric oxide) according to its capacity to diminish or increase, respectively, the quantity of nitrites and nitrates produced compared to the control signal […].
The following controls were introduced in the test: […]
In order to determine the activity of the test product the quantity of stable NO reaction products (nitrites and nitrates) is measured with the aid of the “nitric calorimetric assay” kit sold by the Boehringer company under catalogue number 1756.28. […]

SMILES | % inhibition
CNC(=N)NCCC[C@H](N)C(=O)O [B, N^9-monomethyl-L-arginine, reference compound] | 100%
CNC(=N)NCCC[C@H](N)C(=O)O [C, N^9-monomethyl-L-arginine, reference compound] | 0%
